Only a part of the results on these compounds is given; other tests are left out.
Target: ferredoxin NADP oxidoreductase (FNR, EC 1.18.1.2) from spinach (Spinacia oleracea, UniProt P00455)

Sequences of proteins named here, by UniProt entry; tags and fusion partners are left off. Residues count along the entry.
UniProt P00455, 56-369 limits assumed: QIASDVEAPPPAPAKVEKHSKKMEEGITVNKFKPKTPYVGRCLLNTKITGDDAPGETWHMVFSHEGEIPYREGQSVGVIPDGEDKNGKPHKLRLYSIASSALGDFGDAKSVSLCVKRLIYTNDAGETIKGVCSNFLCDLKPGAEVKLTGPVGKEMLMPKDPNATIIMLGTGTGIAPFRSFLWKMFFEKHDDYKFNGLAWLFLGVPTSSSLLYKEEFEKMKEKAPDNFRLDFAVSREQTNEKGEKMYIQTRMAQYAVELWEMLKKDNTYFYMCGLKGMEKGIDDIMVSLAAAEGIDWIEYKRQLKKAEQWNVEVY

Q: Which results are given for `Cc1c([N+](=O)[O-])cc([N+](=O)[O-])cc1[N+](=O)[O-]`?
A: reduction by FNR under nitrogen (product formed) (0.4 units per ml FNR, 1 mM substrate, NADPH, tris buffer pH 8.5, under nitrogen, 22° C): reduced to one major metabolite; reduction by FNR under aerobic conditions (aerobic conditions): not reduced

Reference: US5777190A (priority 1997, dated 1998)
